In this assay the target is integrin αvβ3 on K562 cells (Kαvβ3) (UniProt P06756). In words: cell-based or functional assay.

By UniProt entry, the sequences of proteins in these tests, tags left out. Residues count along the entry.
UniProt P06756, 31-1048, chain 1 of 2: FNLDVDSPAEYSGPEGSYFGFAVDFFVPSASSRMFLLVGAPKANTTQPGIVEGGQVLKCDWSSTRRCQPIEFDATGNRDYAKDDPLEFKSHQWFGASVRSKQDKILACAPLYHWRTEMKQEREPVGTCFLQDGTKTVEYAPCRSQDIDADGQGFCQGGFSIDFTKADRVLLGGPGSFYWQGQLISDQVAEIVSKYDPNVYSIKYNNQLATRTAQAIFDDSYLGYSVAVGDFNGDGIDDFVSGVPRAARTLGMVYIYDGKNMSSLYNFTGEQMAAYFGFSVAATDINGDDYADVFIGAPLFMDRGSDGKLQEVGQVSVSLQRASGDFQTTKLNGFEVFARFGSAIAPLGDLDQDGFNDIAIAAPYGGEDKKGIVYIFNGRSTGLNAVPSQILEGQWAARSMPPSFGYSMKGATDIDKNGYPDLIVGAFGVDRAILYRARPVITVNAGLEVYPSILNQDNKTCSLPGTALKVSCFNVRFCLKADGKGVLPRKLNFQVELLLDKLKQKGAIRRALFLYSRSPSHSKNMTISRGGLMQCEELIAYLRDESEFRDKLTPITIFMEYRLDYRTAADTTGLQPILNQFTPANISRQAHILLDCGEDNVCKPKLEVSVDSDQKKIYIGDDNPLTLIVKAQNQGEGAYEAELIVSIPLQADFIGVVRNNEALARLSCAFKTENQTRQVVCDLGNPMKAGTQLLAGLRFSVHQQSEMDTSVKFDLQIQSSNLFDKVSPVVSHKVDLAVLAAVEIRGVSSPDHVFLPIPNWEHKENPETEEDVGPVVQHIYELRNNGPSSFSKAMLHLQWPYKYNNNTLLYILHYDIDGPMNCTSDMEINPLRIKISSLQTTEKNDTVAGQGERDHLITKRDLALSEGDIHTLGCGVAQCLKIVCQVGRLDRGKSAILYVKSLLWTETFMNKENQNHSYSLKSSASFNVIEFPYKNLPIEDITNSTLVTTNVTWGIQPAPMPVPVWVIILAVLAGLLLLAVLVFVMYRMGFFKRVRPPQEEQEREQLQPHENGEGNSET

Results on 1 substance are retold here after US8546526.

Substance c(RGDfV) (peptide) returned an IC50 of inhibition of Kαvβ3 cell adhesion to vitronectin (representative curve, FIG. 2 panel A) of 680 nM.
